The list shows a part of the results, in another mix than the full data. The source made the active and inactive calls. Cut-off read from the data, not from the text of the source: active = inhibition above about 40%; inactive = the rest.
The compounds below were run against Coagulation factor XII (Homo sapiens) (UniProt P00748) (assay: human FXIIa protease inhibitors, primary screen, biochemical, 1536-well (AID 800;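 note: 0% = enzyme with no compound and 100% = blank without enzyme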)). Details: purified FXIIa, Boc-QGR-AMC fluorogenic substrate, 2 h; at 5 µM; stronger effect = higher value.

Protein sequences, listed by entry. Tags and fused reporters are not part of them. Lines headed by an entry give the natural chain unless they say otherwise; changes in a name come on top.
UniProt P00748: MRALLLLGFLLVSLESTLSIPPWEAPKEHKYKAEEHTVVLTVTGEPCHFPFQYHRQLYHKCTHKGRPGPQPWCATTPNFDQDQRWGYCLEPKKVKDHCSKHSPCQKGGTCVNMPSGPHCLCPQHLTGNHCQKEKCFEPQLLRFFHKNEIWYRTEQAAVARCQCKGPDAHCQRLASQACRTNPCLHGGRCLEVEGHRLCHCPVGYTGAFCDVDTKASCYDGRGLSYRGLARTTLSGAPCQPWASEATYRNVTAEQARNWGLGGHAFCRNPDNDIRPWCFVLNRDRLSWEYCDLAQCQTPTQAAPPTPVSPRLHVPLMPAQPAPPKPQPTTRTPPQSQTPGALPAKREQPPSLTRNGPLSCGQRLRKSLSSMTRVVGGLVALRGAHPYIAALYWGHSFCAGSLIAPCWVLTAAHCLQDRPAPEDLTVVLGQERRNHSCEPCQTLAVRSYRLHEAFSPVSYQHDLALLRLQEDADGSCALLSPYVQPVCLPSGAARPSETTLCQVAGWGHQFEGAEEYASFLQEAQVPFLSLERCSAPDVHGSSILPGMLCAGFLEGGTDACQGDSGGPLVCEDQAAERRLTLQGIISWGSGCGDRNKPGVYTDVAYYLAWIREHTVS

Row | SMILES | inhibition
1 | O=[As](O)(c1ccccc1Br)c1ccccc1Br | inactive: 3.15%
2 | O=C(OC1CN2CCC1CC2)c1ccc(Cl)cc1 (stereo unspecified) | inactive: 10.7%
3 | COc1cc(C(=O)NCC2(N3CCOCC3)CCCCC2)cc(Cl)c1OC(C)C | inactive: 0.14%
4 | O=[As](O)(O)c1cccnc1 | inactive: 0.43%
5 | O=[As](O)(c1cccc(O)c1)c1cccc(O)c1 | inactive: 6.3%
6 | Cc1cccc(OCC(=O)OC2CN3CCC2CC3)c1 (stereo unspecified) | inactive: 12.4%
7 | Nc1cccc2c([As](=O)(O)O)cccc12 | inactive: 7.2%
8 | Cc1ccc(NCCc2c([N+](=O)[O-])cc([N+](=O)[O-])cc2[N+](=O)[O-])cc1 | inactive: 8.3%
9 | CCCOP(=S)(Nc1nc(N)cc(=O)[nH]1)OCCC | inactive: 5.64%
10 | CCOP(=O)(Nc1cccc2ccccc12)OCC | inactive: -0.85%
11 | COc1cc(C2NCCC3(OCCO3)C2(C)C)cc(OC)c1OC (stereo unspecified) | inactive: 4.79%
12 | O=P(Nc1nccs1)(c1ccccc1)c1nc2ccccc2s1 (stereo unspecified) | inactive: 6.4%
13 | O=P(Nc1nccs1)(Oc1ccccc1)Oc1ccccc1 | inactive: 11.7%
14 | CCOP1(=S)c2c(C)nn(CCC#N)c2N=C(c2ccccc2F)N1C (stereo unspecified) | inactive: 7.76%
15 | CS(=O)(=O)c1cc([N+](=O)[O-])c2no[n+]([O-])c2c1 | inactive: 4.94%
16 | O=C(O)COc1ccc([As](=O)(O)O)cc1[N+](=O)[O-] | inactive: 6.65%
17 | Nc1ccccc1[As](=O)(O)c1ccccc1 | inactive: 9.99%
18 | NC(=O)Nc1ccc([As](=O)(O)O)cc1 | inactive: 8.83%
19 | CN(C(=O)Cc1ccccc1)[C@@H]1CC[C@]2(CCCO2)C[C@H]1N1CCCC1 | inactive: 4.87%
20 | CCOP1(=S)c2c(C)nn(CCC#N)c2N=C(c2ccc(F)cc2)N1C (stereo unspecified) | inactive: 11.7%
21 | O=[N+]([O-])c1ccc2c(c1)nnn2O | inactive: 11.1%
